Experimental data taken from publication PMC4605517 (PLoS ONE, 2015).

Chains of the proteins cited; added tags and fusions are not shown. Residues count along the entry.
UniProt Q16186, 1-150: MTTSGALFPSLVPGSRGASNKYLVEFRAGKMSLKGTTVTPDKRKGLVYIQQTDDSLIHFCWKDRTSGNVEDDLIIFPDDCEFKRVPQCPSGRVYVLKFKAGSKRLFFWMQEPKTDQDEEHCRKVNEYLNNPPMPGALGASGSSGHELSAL

Tests used:
hRpn13 Pru domain [1] = target: T1, hRpn13 Pru domain (Homo sapiens, UniProt Q16186); assay: Isothermal titration calorimetry (ITC); type: binding
T1 construct: hRpn13 (1–150) and hRpn2 (916–953) samples were dialyzed extensively against ITC buffer; histidine tag (with PreScission protease site) (cleaved yes); made in house; host or cells: Escherichia coli (inferred: the method is called similar to that for hRpn2, which was expressed in E. coli)
Procedure: hRpn2 (916–953) was expressed in Escherichia coli as a fusion protein with GST and a PreScission protease cleavage site. Cells were lysed by sonication and cellular debris removed by centrifugation at 31,000g for 30 minutes. The cell lysate was incubated with glutathione S-sepharose resin and washed extensively with Buffer 1 (20 mM sodium phosphate, 300 mM NaCl, 2 mM DTT, pH 6.5). hRpn2 (916–953) was eluted from the resin and separated from GST by overnight incubation with 50 u/mL PreScission protease in Buffer 2 (20 mM sodium phosphate, 50 mM NaCl, 2 mM DTT, pH 6.5). Further purification was achieved by size exclusion chromatography with a Superdex 75 column on an FPLC system. ^15N ammonium chloride, ^13C glucose, and D2O were used for isotope labeling. hRpn13 (1–150) was prepared as described by with a method similar to that described above for hRpn2, but with a histidine tag in place of GST and Talon resin used for affinity purification. PreScission protease was used for elution and removal of the tag and all buffers were identical. All NMR experiments were performed in Buffer 2, but with addition of 10% D2O and 0.1% sodium azide. Protein concentrations were estimated by using calculated extinction coefficients for each protein and absorbance at λ = 280nm. […] The molar ratio was then evaluated by LC-MS analysis and found to be 1:1 stoichiometry. […]

hRpn13 Pru domain [2] = target: T1, hRpn13 Pru domain; assay: 1H,15N heteronuclear NOE experiments; settings: 25°C
Procedure: hRpn2 (916–953) was expressed in Escherichia coli as a fusion protein with GST and a PreScission protease cleavage site. Cells were lysed by sonication and cellular debris removed by centrifugation at 31,000g for 30 minutes. The cell lysate was incubated with glutathione S-sepharose resin and washed extensively with Buffer 1 (20 mM sodium phosphate, 300 mM NaCl, 2 mM DTT, pH 6.5). hRpn2 (916–953) was eluted from the resin and separated from GST by overnight incubation with 50 u/mL PreScission protease in Buffer 2 (20 mM sodium phosphate, 50 mM NaCl, 2 mM DTT, pH 6.5). Further purification was achieved by size exclusion chromatography with a Superdex 75 column on an FPLC system. ^15N ammonium chloride, ^13C glucose, and D2O were used for isotope labeling. hRpn13 (1–150) was prepared as described by with a method similar to that described above for hRpn2, but with a histidine tag in place of GST and Talon resin used for affinity purification. PreScission protease was used for elution and removal of the tag and all buffers were identical. All NMR experiments were performed in Buffer 2, but with addition of 10% D2O and 0.1% sodium azide. Protein concentrations were estimated by using calculated extinction coefficients for each protein and absorbance at λ = 280nm. The hRpn2 (916–953):hRpn13 Pru domain complex was passed over a size exclusion column after mixing to remove any excess component. The molar ratio was then evaluated by LC-MS analysis and found to be 1:1 stoichiometry.
^1H, ^15N heteronuclear NOE experiments were performed with a four second saturation transfer or control period at 600 (for hRpn2 (916–953)) or 700 (for hRpn2 (916–953):hRpn13 Pru domain) MHz on spectrometers equipped with cryogenically cooled probes. Sample concentrations of 0.2 mM (hRpn2 (916–953)) or 0.4 mM (hRpn2 (916–953):hRpn13 Pru) were used and hRpn2 (916–953) was ^13C, ^15N, and 70% ^2H labeled; hRpn13 Pru was unlabeled. The hRpn2 (916–953):hRpn13 Pru sample was passed over a size exclusion column after mixing and LC-MS analysis determined the complex to be at 1:1 stoichiometry. The program relax was used for data analysis.

hRpn13 Pru domain [3] = target: T1, hRpn13 Pru domain; assay: 1H,15N HSQC NMR titration / chemical shift perturbation (CSP); type: binding; settings: 25°C, pH 6.5
Procedure: hRpn2 (916–953) was expressed in Escherichia coli as a fusion protein with GST and a PreScission protease cleavage site. Cells were lysed by sonication and cellular debris removed by centrifugation at 31,000g for 30 minutes. The cell lysate was incubated with glutathione S-sepharose resin and washed extensively with Buffer 1 (20 mM sodium phosphate, 300 mM NaCl, 2 mM DTT, pH 6.5). hRpn2 (916–953) was eluted from the resin and separated from GST by overnight incubation with 50 u/mL PreScission protease in Buffer 2 (20 mM sodium phosphate, 50 mM NaCl, 2 mM DTT, pH 6.5). […] Protein concentrations were estimated by using calculated extinction coefficients for each protein and absorbance at λ = 280nm. […] The molar ratio was then evaluated by LC-MS analysis and found to be 1:1 stoichiometry. […]
Chemical shift perturbation (CSP) analysis was done by comparing ^1H, ^15N HSQC experiments recorded on ^15N labeled hRpn2 (916–953) alone and with equimolar unlabeled hRpn13 Pru. CSP values were calculated according to Eq 1, as described in [24]. […]

CC[C@H](C)[C@H](NC(=O)[C@H](Cc1ccc(O)cc1)NC(=O)[C@H](CCC(=O)O)NC(=O)[C@H](Cc1ccccc1)NC(=O)[C@@H]1CCCN1C(=O)[C@H](CCC(=O)O)NC(=O)[C@@H]1CCCN1C(=O)[C@@H]1CCCN1C(=O)[C@H](CCC(=O)O)NC(=O)[C@@H]1CCCN1C(=O)[C@H](CCC(=O)O)NC(=O)[C@H](CCC(N)=O)NC(=O)[C@H](CCC(=O)O)NC(=O)[C@H](CCC(=O)O)NC(=O)[C@H](CCC(=O)O)NC(=O)[C@H](CCC(=O)O)NC(=O)[C@@H](NC(=O)[C@H](CCCCN)NC(=O)[C@@H]1CCCN1C(=O)CNC(=O)[C@H](Cc1c[nH]cn1)NC(=O)[C@H](C)NC(=O)[C@H](C)NC(=O)[C@@H](NC(=O)[C@@H]1CCCN1C(=O)[C@H](CCC(=O)O)NC(=O)[C@@H](NC(=O)[C@H](CC(C)C)NC(=O)[C@H](CCC(=O)O)NC(=O)[C@H](CCC(=O)O)NC(=O)[C@@H](NC(=O)[C@H](CC(=O)O)NC(=O)[C@H](CCC(=O)O)NC(=O)[C@H](CO)NC(=O)[C@@H](NC(=O)[C@H](CC(=O)O)NC(=O)[C@H](CO)NC(=O)CNC(=O)[C@@H]1CCCN1C(=O)CN)[C@@H](C)O)[C@@H](C)CC)C(C)C)C(C)C)[C@@H](C)CC)C(=O)N[C@@H](CC(=O)O)C(=O)N[C@@H](CC(=O)O)C(=O)O [hRpn2 (916–953)]
Kd (hRpn13 Pru domain [1]; Fig 2B fit value, ITC, 25°C, pH 6.5, 20 μM hRpn13 Pru, 1-site binding mode): 0.0123 ± 0.00311 µM | concentration of cytosolic proteasome in intact neurons (190 nM) relative to Kd (hRpn13 Pru domain [1]; ratio of literature proteasome concentration (ref [26]) to Kd for hRpn2 interaction with hRpn13): 15 fold | average heteronuclear NOE enhancement value, 916–936, bound (hRpn13 Pru domain [2]; bound to hRpn13 Pru, 0.4 mM, 700 MHz, pH 6.5): -0.19 | average heteronuclear NOE enhancement value, E939-D953, hRpn13-bound (hRpn13 Pru domain [2]; bound to hRpn13 Pru, 0.4 mM, 700 MHz, pH 6.5, four second saturation): 0.58 | average heteronuclear NOE enhancement value, 916–936, free (hRpn13 Pru domain [2]; free peptide, 0.2 mM, 600 MHz, pH 6.5): -0.43 | average heteronuclear NOE enhancement value, E939-D953, free (hRpn13 Pru domain [2]; free peptide, 0.2 mM, 600 MHz, pH 6.5, four second saturation): -0.51 | amino acids with large effects on addition of hRpn13 Pru (hRpn13 Pru domain [3]; 1H,15N HSQC, 0.6 mM 15N labeled peptide, equimolar hRpn13 Pru): large effects for F948, E949, Y950, and I951 | amino acids with significant chemical shift perturbation (hRpn13 Pru domain [3]; CSP, 15N labeled peptide with equimolar unlabeled hRpn13 Pru): significant shifting was calculated for E943-I951
